Test results taken from patent publication US8921383B2, “Thiazolopyrimidine compounds” (Hoffmann-La Roche Inc., priority 2011, dated 2014).

Target: T1, purified recombinant human SYK360-635 (Homo sapiens, UniProt P43405)
T1 construct: truncated construct of Spleen Tyrosine Kinase aa 360-635; GST; made in house
Test: SYK kinase assay: 33P γATP incorporation into biotinylated peptide substrate, IC50 determination
Type: biochemical
Settings: SYK 0.5 nM, ATP 20 μM, DYE peptide 5 μM, 30° C. 15 min; read-out: IC50 h-syk-gst-sf9-c (inactive-dephosphorylated)
Experimental: Determination of IC50 of Spleen Tyrosine Kinase (SYK) Inhibition:
SYK kinase assay is a standard kinase assay adapted to a 96 well plate format. This assay is performed in 96-well format for IC50 determination with […] which represented 10 half log dilutions and a 40 μL reaction volume. The assay measures the incorporation of radiolabeled ^33P γATP into an N-terminally biotinylated peptide substrate, derived from naturally occurring phosphoacceptor consensus sequence (Biotin-11aa DY*E). Phosphorylated products were detected upon termination of reactions with EDTA and the addition of Streptavidin coated beads.
Assay plates: 96-well MultiScreen 0.65 um filter plates (Millipore Cat. No.: MADVNOB10)
BSA: Bovine Serum Albumin Fraction V, fatty acid free (Roche Diagnostics GmbH, Cat. No. 9100221) diluted to a final concentration of 0.1%
Assay Dilution Buffer (ADB): 50 mM HEPES, 0.1 mM EGTA, 0.1 mM Na Vanadate, 0.1 mM β-glycerophosphate, 10 mM MgCl2, 1 mM DTT, 0.1% BSA, pH 7.5
Bead wash buffer: 10 g/L PBS (Phosphate buffered saline) with 2M NaCl+1% phosphoric acid.
DMSO and the mixture was incubated for 10 min at RT.
The kinase reaction was initiated by the addition of 10 μL 4× substrate cocktail containing the DYE peptide substrate [0 or 5 μM], ATP [20 μM] and ^33PγATP [2 μCi/r×n]. After incubation at 30° C. for 15 min, the reaction was terminated by the transfer of 25 μL of the reaction sample to a 96 well 0.65 μm Millipore MADVNOB membrane/plate containing 200 μL 5 mM EDTA and 20% Streptavidine coated beads in PBS.
The unbound radionucleotides were washed under vacuum with 3×250 μL 2M NaCl; 2×250 μL 2M NaCl+1% phosphoric acid; 1×250 μL H2O. After the last wash membrane/plates were transferred to an adaptor plate, heat dried for 15 min at 60° C., and 50 μL scintillation cocktail was added to each well and 4 h later the amount of radioactivity was counted in a top counter.

IC50 [nM]	SMILES
19900	COc1ccc(Nc2nc(N3CCCC(C(=O)NCCc4ccncc4)C3)nc3scnc23)cc1OC (stereo not drawn) [Compound I-25, 1-(7-(3,4-Dimethoxyphenylamino)thiazolo[5,4-d]pyrimidin-5-yl)-N-(2-(pyridin-4-yl)ethyl)piperidine-3-carboxamide]
65	COc1ccc(Nc2nc(N3CCCC(C(=O)Nc4ccc(C(=O)O)nc4)C3)nc3scnc23)cc1OC (stereo not drawn) [Compound I-42, 5-(1-(7-(3,4-Dimethoxyphenylamino)thiazolo[5,4-d]pyrimidin-5-yl)piperidine-3-carboxamido)picolinic acid]
79	COc1ccc(Nc2nc(-c3cccc(CO)c3)nc3scnc23)cc1OC [Compound I-67, {3-[7-(3,4-Dimethoxy-phenylamino)-thiazolo[5,4-d]pyrimidin-5-yl]-phenyl}-methanol]
